Test system: μ-opioid receptor (μOR)
Assay type: cell-based

## Buprenorphine hydrochloride
  Classification of agonism and bias: G protein-biased partial agonist

Source: publication PMC8541911 (Molecular cell, 2021)
